Experimental data as given in ChEMBL document CHEMBL1201862, “PubChem BioAssay data set” (2004).

The chains behind the UniProt entries cited, without tags or fusion partners.
UniProt P98170, whole entry: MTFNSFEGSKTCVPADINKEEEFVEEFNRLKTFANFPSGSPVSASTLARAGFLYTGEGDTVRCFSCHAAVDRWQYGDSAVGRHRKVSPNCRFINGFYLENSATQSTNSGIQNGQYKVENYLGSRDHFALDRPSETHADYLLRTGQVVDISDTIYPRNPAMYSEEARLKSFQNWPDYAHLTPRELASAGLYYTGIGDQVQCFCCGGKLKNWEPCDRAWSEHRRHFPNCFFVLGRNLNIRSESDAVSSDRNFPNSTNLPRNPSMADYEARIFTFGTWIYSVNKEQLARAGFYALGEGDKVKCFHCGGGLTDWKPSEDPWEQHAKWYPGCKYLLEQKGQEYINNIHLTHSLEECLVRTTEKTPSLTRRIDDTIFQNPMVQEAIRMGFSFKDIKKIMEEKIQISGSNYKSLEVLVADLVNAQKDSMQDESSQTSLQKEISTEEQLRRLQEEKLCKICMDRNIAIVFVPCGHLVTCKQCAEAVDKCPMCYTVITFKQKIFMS
UniProt Q9Y2R2, whole entry: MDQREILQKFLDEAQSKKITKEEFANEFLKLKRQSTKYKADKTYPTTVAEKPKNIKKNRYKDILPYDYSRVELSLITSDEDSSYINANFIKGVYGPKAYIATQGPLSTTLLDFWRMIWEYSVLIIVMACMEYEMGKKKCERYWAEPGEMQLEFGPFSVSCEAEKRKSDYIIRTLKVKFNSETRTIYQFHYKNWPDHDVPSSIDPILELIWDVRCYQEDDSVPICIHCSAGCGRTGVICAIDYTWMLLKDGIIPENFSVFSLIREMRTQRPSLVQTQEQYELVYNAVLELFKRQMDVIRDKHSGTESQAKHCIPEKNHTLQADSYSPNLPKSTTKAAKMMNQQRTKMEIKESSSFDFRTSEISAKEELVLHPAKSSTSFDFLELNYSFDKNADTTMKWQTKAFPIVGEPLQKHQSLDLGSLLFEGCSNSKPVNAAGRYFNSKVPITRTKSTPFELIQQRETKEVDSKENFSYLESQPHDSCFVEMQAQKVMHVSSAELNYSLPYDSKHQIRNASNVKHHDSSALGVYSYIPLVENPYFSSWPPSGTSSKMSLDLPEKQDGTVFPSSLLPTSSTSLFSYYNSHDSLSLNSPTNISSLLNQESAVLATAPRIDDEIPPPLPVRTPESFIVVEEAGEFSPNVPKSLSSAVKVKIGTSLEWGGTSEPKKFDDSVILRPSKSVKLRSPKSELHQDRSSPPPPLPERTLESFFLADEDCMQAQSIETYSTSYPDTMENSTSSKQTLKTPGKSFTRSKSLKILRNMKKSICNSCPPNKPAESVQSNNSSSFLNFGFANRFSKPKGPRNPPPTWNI

Experiments:
Phospholipase D1 = target: T1, Phospholipase D1 (Homo sapiens, UniProt Q13393); assay: PLD1 purified enzyme concentration response. [Related pubchem assays (depositor defined):AID588854]; assay type: functional
T1 sequence (Q13393 whole entry): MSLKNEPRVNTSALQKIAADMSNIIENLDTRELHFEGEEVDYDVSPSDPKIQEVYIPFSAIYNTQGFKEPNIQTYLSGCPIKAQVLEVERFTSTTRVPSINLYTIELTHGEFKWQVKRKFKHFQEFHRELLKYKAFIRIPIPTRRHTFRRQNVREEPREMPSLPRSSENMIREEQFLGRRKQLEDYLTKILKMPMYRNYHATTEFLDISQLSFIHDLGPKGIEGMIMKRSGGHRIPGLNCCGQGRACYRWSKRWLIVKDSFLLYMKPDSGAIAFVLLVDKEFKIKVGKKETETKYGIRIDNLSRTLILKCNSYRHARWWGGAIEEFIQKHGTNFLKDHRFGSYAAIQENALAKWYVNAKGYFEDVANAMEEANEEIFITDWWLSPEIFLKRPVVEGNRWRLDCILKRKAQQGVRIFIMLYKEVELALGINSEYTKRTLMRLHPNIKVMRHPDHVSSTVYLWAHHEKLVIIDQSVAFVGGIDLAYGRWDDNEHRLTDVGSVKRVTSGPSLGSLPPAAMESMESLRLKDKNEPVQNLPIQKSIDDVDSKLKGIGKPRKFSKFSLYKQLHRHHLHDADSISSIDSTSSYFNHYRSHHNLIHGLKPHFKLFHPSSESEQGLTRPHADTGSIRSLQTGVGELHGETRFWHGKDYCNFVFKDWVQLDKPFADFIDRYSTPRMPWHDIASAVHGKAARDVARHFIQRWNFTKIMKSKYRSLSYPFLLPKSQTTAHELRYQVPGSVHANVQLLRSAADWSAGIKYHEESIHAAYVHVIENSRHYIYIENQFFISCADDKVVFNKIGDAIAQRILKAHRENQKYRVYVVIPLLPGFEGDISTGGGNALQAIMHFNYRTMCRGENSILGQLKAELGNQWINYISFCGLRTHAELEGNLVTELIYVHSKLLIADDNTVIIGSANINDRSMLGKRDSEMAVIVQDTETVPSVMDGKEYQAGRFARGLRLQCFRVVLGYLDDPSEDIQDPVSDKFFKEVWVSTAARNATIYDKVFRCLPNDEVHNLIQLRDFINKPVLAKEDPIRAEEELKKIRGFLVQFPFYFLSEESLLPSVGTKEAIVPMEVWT

[1] = target: T2, E3 ubiquitin-protein ligase XIAP (Homo sapiens, UniProt P98170); assay: SAR analysis of Antagonists of IAP-family anti-apoptotic proteins. [Related pubchem assays (depositor defined):AID1018, AID1449, AID1513, AID1514, AID1638]
[2] = target: T2, E3 ubiquitin-protein ligase XIAP; assay: SAR analysis of Antagonists of XIAP-Bir3 domain of IAP-family anti-apoptotic proteins. [Related pubchem assays (depositor defined):AID1018, AID1449, AID1513, AID1514, AID1638]
[3] = target: T3, Tyrosine-protein phosphatase non-receptor type 22 (Homo sapiens, UniProt Q9Y2R2); assay type: functional
[4] = target: T3, Tyrosine-protein phosphatase non-receptor type 22; assay type: functional; remark: listed apart in the source
[5] = HIV-1 AD8 envelope cell-cell fusion blockers – cherry-pick, dose response (AID 652062); assay type: functional, cell-based;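 also: luciferase signal from cell-cell fusion driven by HIV-1 clade B AD8 Env; potency is for inhibitors of fusion seen as a drop in luminescence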
[6] = blockers of HIV-1 ZM109 envelope-driven cell-cell fusion – HeLa effector, CEM target cells, luciferase, cherry-pick, dose response (AID 652058); assay type: functional, cell-based;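 also: luciferase signal from HIV-1 Env mediated cell-cell fusion of effector and target cells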
[7] = blockers of HIV-1 envelope-mediated cell-cell fusion – cherry-pick, dose response (AID 652057); assay type: functional, cell-based
[8] = off-target signal loss in HeLa-CEM21 co-culture – HeLa F-luc CTL cells, cherry-picked, counter-screen for HIV-1 Env fusion inhibitor project, dose response (AID 652040); assay type: functional, cell-based;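 also: potency for signal decrease marking cytotoxic or nonspecific inhibition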

Structure (SMILES): C[C@@H](CN1CCC(n2c(=O)[nH]c3ccc(F)cc32)CC1)NC(=O)[C@@H]1C[C@H]1c1ccccc1
- IC50 (Phospholipase D1): active: 0.16 µM

Structure (SMILES): CN[C@@H](C)C(=O)N[C@H](C(=O)N1CCC[C@H]1C(=O)N[C@@H]1CCCc2ccccc21)C(C)C
- IC50 [1]: active: 3.1 µM
- IC50 [2]: active: 0.28 µM

Structure (SMILES): Cn1ncnc2c(=O)n(C)c(=O)nc1-2
- IC50 [3]: active: 1.35 µM
- IC50 [4]: active: < 1.24 µM

Structure (SMILES): CC(Cc1ccc(O)cc1)NCC(O)c1cc(O)cc(O)c1 (centres undefined) [FENOTEROL HBR]
- AC50 [5]: active: 4.14 µM
- AC50 [6]: active: 7.68 µM
- AC50 [7]: active: 6.9 µM
- AC50 [8]: active: 3.81 µM

The source made the active and inactive calls.
